Experimental data reported in US8097722B2 (priority 2008, dated 2012).
Only a part of the results on these compounds is given; other tests are left out.

Columns and labels:
[1] = tested on: brain PMPMEase; test: Inhibition of brain PMPMEase by OPs (brain membrane Triton X-100 extract); format: biochemical, porcine; conditions: 1 mM OP, 3 h, 37° C., brain membrane Triton X-100 extract (47 μg protein), N=3
[2] = tested on: liver PMPMEase; test: Inhibition of liver PMPMEase by OPs (liver 40,000xg supernatant); format: biochemical, porcine; conditions: 1 mM OP, 1 h, 37° C., liver 40,000×g supernatant (19 μg protein), N=3

Compound: CC(C)NP(=O)(F)NC(C)C
- Brain Mean (mean percent inhibition relative to the controls) [1]: 40%
- Liver Mean (mean percent inhibition relative to the controls) [2]: 94%
